# Measurements reported in US9809634B2, “Composition comprising branched multipeptide vaccine and vaccine comprising the same” (INDUSTRY FOUNDATION OF CHONNAM NATIONAL UNIVERSITY, priority 2015, dated 2017).
# Test system: T2 cells
# Experiment: Binding capacity to T-lymphocyte of branched multi-peptide and stability after binding (T2 cells, Brefeldin A)
# Type: cell-based, human
# Details: T2 cells treated with Brefeldin A, measured at 0, 2, 4, 8 and 24 hours; compared to the mixture of single oligopeptides (multipeptide-cocktail); FIG. 4
substance,measurement,value
"branched multi-peptide: branched peptide structure produced from three peptides of BIRC5 96 methionine, CD99 9, and ERBB2 369, using mini-PEG2",binding capacity to T-lymphocyte over time (stability after binding),remarkably and stably maintained over time
